Test results: ChEMBL document CHEMBL1129346, “First examples of peptidomimetic inhibitors of interleukin-1 beta converting enzyme” (J Med Chem, 1996)

Tests used:
Caspase-1 (Homo sapiens) [1] = target: T1, Caspase-1 (Homo sapiens) (UniProt P29466); test: Second order rate constant of inactivation for compound was measured against Interleukin-1-beta converting enzyme partially purified from THP-1 cells
T1 sequence (whole entry): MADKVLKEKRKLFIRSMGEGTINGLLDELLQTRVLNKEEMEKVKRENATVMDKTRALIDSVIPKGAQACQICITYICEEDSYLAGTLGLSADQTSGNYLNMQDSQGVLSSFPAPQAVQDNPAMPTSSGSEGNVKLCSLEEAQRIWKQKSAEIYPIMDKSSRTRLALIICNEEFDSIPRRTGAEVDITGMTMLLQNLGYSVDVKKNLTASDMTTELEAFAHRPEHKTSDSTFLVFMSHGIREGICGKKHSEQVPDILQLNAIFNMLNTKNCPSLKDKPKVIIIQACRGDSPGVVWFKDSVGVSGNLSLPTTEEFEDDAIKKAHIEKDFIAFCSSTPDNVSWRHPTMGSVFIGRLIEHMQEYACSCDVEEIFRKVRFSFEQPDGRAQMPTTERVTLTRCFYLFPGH
In short: (§1)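 ICE was partially purified from THP-1 cells by DEAE-Sephacel and Sephadex G-75 steps. The assay buffer was 10 mM HEPES pH 7.5 with 25% glycerol and 1 mM DTT, and the substrate was 10 μM Suc-Tyr-Val-Ala-Asp-AMC. Fluorescence progress curves were recorded at 37 °C over 30 min, and the nonlinear curves were analysed by the Tian–Tsou method. Standard error was <10%.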

Caspase-1 (Homo sapiens) [2] = target: T1, Caspase-1 (Homo sapiens); test: The binding affinity of compound was measured against Interleukin-1-beta converting enzyme in monocytic cells; assay type: cell-based; in short: as §1

CC(C)[C@H](NC(=O)OCc1ccccc1)C(=O)N[C@@H](C)C(=O)N[C@@H](CC(=O)O)C(=O)COc1cc(C(F)(F)F)nn1-c1ccccc1
k obs / 1 (Caspase-1 (Homo sapiens) [1]): 280000 M⁻¹ s⁻¹

O=C(O)C[C@H](NC(=O)Cn1c(-c2cccs2)ncc(NC(=O)OCc2ccccc2)c1=O)C(=O)COC(=O)c1c(Cl)cccc1Cl
k obs / 1 (Caspase-1 (Homo sapiens) [2]): 272000 M⁻¹ s⁻¹
